The results in this text go back to article PMC11961569 (Nature Communications, 2025).

Amino acid sequences for entries named in this document (tags omitted).
UniProt P9WJY5, whole entry, looked up: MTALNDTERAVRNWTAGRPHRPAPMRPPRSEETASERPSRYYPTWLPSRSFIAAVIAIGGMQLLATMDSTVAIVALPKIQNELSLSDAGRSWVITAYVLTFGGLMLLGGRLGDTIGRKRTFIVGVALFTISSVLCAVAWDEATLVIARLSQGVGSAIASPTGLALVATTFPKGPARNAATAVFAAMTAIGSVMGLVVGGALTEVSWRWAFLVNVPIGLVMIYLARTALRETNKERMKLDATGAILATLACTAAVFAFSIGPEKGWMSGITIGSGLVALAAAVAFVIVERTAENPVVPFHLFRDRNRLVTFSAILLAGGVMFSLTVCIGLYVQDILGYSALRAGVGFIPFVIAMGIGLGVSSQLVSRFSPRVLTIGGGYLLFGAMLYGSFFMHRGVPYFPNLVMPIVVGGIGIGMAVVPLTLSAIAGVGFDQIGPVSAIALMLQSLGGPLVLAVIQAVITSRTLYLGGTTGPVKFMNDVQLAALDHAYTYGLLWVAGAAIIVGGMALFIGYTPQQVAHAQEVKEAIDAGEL

This experiment addresses Wild type EfpA (Mycobacterium tuberculosis, UniProt P9WJY5).

Turning to `CC[n+]1c(-c2ccccc2)c2cc(N)ccc2c2ccc(N)cc21` [ethidium bromide], the “EtBr efflux fluorescence assay in E. coli JD838 cells” value is on record as “comparison of transport of EtBr, with that of wildtype EfpA”.
